These results are taken from PubChem BioAssay AID504707 (The Scripps Research Institute Molecular Screening Center, 2011).

Only a part is listed here, and it is no random draw. Activity calls are given as the source filed them.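 How the source made its calls: active means percent activation above the mean of all tested compounds plus 3 SD (cut at about 19% in these data); inactive means the rest.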

The target of this assay is cAMP-dependent protein kinase type I-alpha regulatory subunit (Bos taurus) + cAMP-dependent protein kinase catalytic subunit beta (Mus musculus) (UniProt P00514+P68181). Briefly: activators of PKA-R1A holoenzyme, primary screen, biochemical, fluorescence polarization, Cy5-IP20, bovine R1A, mouse PKAc (AID 504707). To be noted: PKA-R1A dissociation, at 11.4 µM, stronger effect = higher value, scaled: DMSO 0%, 113 µM cGMP 100%. (Fluorescence polarisation rises when a labelled molecule tumbles more slowly, as on binding a larger partner.)
Consider `CCOC(=O)c1ccc(NP(C)(=O)Oc2ccc(OC)cc2)cc1` (stereo not drawn), for which the activation was inactive: 11.2%.

In the case of `COc1ccccc1OP(C)(=O)Nc1ccccc1` (stereo not drawn), the activation is inactive: -4.71%.

Regarding `CP(=O)(Nc1ccccc1Br)Oc1ccccc1` (stereo not drawn), the activation was inactive: 2.43%.

Turning to `CP(=S)(Nn1cnnc1)Oc1ccccc1` (stereo not drawn), the activation is inactive: -8.7%.

In the case of `CC(C)(C)c1ccc(OP(C)(=O)Nc2ccc(SC(F)(F)F)cc2)cc1` (stereo not drawn), the activation was inactive: 9.18%.

As to `Cc1cccc(C)c1OP(C)(N)=O` (stereo not drawn), the activation is inactive: 5.54%.

As for `O=[N+]([O-])c1ccc2c(c1)C=Nc1ccccc1O2`, the activation is inactive: -7.34%.

As for `O=[N+]([O-])c1cc([N+](=O)[O-])c(Nc2cccnc2)c([N+](=O)[O-])c1`, the activation is inactive: 4.75%.

On to `COc1ccccc1OP(C)(=O)Nc1cc(Cl)ccc1C` (stereo not drawn), for which the activation is inactive: 13.6%.

With `COc1ccc(OP(C)(=O)Nc2cccc(F)c2)cc1` (stereo not drawn), the activation is inactive: 0.96%.

As for `Cc1cc(C)cc(OP(C)(N)=O)c1` (stereo not drawn), the activation was inactive: 2.81%.

In the case of `CCOC(=O)c1ccc(NP(C)(=O)Oc2ccccc2)cc1` (stereo not drawn), the activation is inactive: -6.95%.

Consider `COc1ccccc1OP(C)(=O)Nc1ccc(C)cc1` (stereo not drawn), for which the activation is inactive: 2.89%.

Regarding `Cc1ccc(NP(C)(=O)Oc2ccccc2)c(C)c1` (stereo not drawn), the activation is inactive: 6.49%.

`CCN(CC)CCCOC(=O)C(O)(c1ccccc1)c1ccccc1`: the activation is inactive: -8.77%.

Consider `Cc1cc(C)cc(OP(C)(=O)Nc2ccc(C)cc2C)c1` (stereo not drawn), for which the activation was inactive: 7.98%.

Consider `CCOC(=O)c1ccc(NP(C)(=O)Oc2cc(C)cc(C)c2)cc1` (stereo not drawn), for which the activation is inactive: 5.52%.

In the case of `COc1ccccc1OP(C)(=O)Nc1cccc(Br)c1` (stereo not drawn), the activation was inactive: -5.23%.

Consider `CP(=O)(Nc1cccc(Br)c1)Oc1ccccc1` (stereo not drawn), for which the activation was inactive: -3.87%.

For `Cc1cc(C)cc(OP(C)(=O)Nc2ccccn2)c1` (stereo not drawn), the activation is inactive: -0.09%.

Regarding `Cc1ccc(C)c(NP(C)(=O)Oc2ccccc2)c1` (stereo not drawn), the activation was inactive: -9.88%.

For `O=C(O)c1cccc(Nc2c([N+](=O)[O-])cc([N+](=O)[O-])cc2[N+](=O)[O-])c1`, the activation was inactive: -1.03%.

`CC1=NCCc2c1[nH]c1ccccc21.O=[N+]([O-])c1cc([N+](=O)[O-])c(O)c([N+](=O)[O-])c1`: the activation was inactive: -10.2%.

Turning to `O=[N+]([O-])c1cc([N+](=O)[O-])c(Nc2nnnn2CCO)c([N+](=O)[O-])c1`, the activation was inactive: -0.83%.

With `CC1=C2N=C(C=C3N=C(C(C)=C4[N-][C@@](C)([C@@H]5N=C1[C@](C)(CCC(=O)NC[C@@H](C)OP(=O)([O-])O[C@H]1[C@@H](O)[C@@H](n6cnc7cc(C)c(C)cc76)O[C@@H]1CO)[C@H]5CC(N)=O)[C@@](C)(CC(N)=O)[C@@H]4CCC(N)=O)[C@@](C)(CC(N)=O)[C@@H]3CCC(N)=O)C(C)(C)[C@@H]2CCC(N)=O.[C-]#N.[Co+3]`, the activation was inactive: -8.79%.

For the compound `CCOC(=O)C(CC)C1=NC(C)(C)Cc2ccccc21.O=[N+]([O-])c1cc([N+](=O)[O-])c(O)c([N+](=O)[O-])c1` (stereo not drawn), the activation was inactive: 0.72%.

Take `CP(=O)(Nc1ccc(SC(F)(F)F)cc1)Oc1ccccc1` (stereo not drawn): the activation was inactive: 13.5%.

As to `CCCOc1ccc(NP(C)(=O)Oc2ccc(Cl)cc2)cc1` (stereo not drawn), the activation is inactive: -0.42%.

On to `COc1ccccc1OP(C)(=O)Nc1c(C)cccc1C` (stereo not drawn), for which the activation is inactive: 6.78%.

As to `CN1CCCCC1COC(=O)C1(O)c2ccccc2CCc2ccccc21` (stereo not drawn), the activation was inactive: 1.02%.

Regarding `O=[N+]([O-])c1cc([N+](=O)[O-])c(-n2nnc3ccccc32)c([N+](=O)[O-])c1`, the activation was inactive: 6.41%.

Turning to `Cc1nc2ccc3ccccc3c2s1.O=[N+]([O-])c1cc([N+](=O)[O-])c(O)c([N+](=O)[O-])c1`, the activation was inactive: 4.68%.

As to `O=[N+]([O-])c1cc([N+](=O)[O-])c(-c2cnn(-c3ccccc3)c2)c([N+](=O)[O-])c1`, the activation is inactive: 4.42%.
